From patent US12605653B2, “Anionic switchable hydrophilicity solvents” (QUEEN'S UNIVERSITY AT KINGSTON, priority 2022, dated 2026)

Assay: Evaluation of the switching behaviour of ASHS systems (carboxylic acid/base/water) under air and 1 bar of CO2
Format: physicochemical
Details: KOH instead of NaOH; 2:1 H2O:acid mass ratio; 1 bar CO2
Description: Base solutions were prepared by combining the desired base and water (mass for components measured in an analytical scale) into either a 10 or 25 mL graduated cylinder (containing a magnetic stir bar) depending on the final volume of the mixture obtained. The carboxylic acid (mass measured using an analytical balance prior to addition) being studied was added to the base solution, and the mixture was mixed with the help of a magnetic stir plate. The amount of base and water used were selected based on the acid:base:water ratio desired. Experiments were carried out using stoichiometric and substoichiometric amounts of the base relative to the number of mols of acid added. In addition, the quantity of water used was adjusted based on the acid:water mass ratio desired. A typical experiment would contain 1 g of the carboxylic acid; between 0.4 and 1 mol of base per mol of acid; and a water mass varying from 1 to 9.5 g.
During a typical experiment, CO2 would be added for approximately 2 h at atmospheric pressure. At the end of the 2 h, the sparge tube would be removed, and the number and volume of the phases obtained would be recorded. The pH was once again recorded. For mixtures with only 1 phase, the pH of that phase was recorded. While for mixtures with 2 phases, the pH of the aqueous phase was recorded. […]

Range of base:acid mole ratios with switchable behaviour: broadens the successful range
SMILES: CCCCC(CC)C(=O)O (stereo not shown) [EHA, 2-ethylhexanoic acid]
